Tests used:
Format in all cases: cell-based
[1] = target: Mitogen-activated protein kinase; ERK1/ERK2 (Homo sapiens) (UniProt P27361+P28482); assay: Effect on ERK1/2 at T202/Y204,T185/Y187 phosphorylation level in human NCI-H1975 incubated for 12 hrs by human phosphokinase proteome profiler array relative to beta-catenin
[2] = target: Serine/threonine-protein kinase AKT (Homo sapiens) (UniProt P31751+Q9Y243+P31749); assay: Effect on Akt1/2/3 at S473 phosphorylation level in human NCI-H1975 incubated for 12 hrs by human phosphokinase proteome profiler array relative to beta-catenin
[3] = target: Tyrosine-protein kinase Fyn (Homo sapiens) (UniProt P06241); assay: Effect on FYN at Y420 phosphorylation level in human NCI-H1975 incubated for 12 hrs by human phosphokinase proteome profiler array relative to beta-catenin
[4] = target: Transcription factor Jun (Homo sapiens) (UniProt P05412); assay: Effect on c-Jun at S63 phosphorylation level in human NCI-H1975 incubated for 12 hrs by human phosphokinase proteome profiler array relative to beta-catenin
[5] = target: Ribosomal protein S6 kinase beta-1 (Homo sapiens) (UniProt P23443); assay: Effect on p70S6 Kinase at T421/S424 phosphorylation level in human NCI-H1975 incubated for 12 hrs by human phosphokinase proteome profiler array relative to control
[6] = target: Cellular tumor antigen p53 (Homo sapiens) (UniProt P04637); assay: Effect on p53 at S392 phosphorylation level in human NCI-H1975 incubated for 12 hrs by human phosphokinase proteome profiler array relative to control
[7] = target: Proto-oncogene tyrosine-protein kinase Src (Homo sapiens) (UniProt P12931); assay: Effect on SRC at Y419 phosphorylation level in human NCI-H1975 incubated for 12 hrs by human phosphokinase proteome profiler array relative to control
[8] = target: Cellular tumor antigen p53 (Homo sapiens) (UniProt P04637); assay: Effect on p53 at S46 phosphorylation level in human NCI-H1975 incubated for 12 hrs by human phosphokinase proteome profiler array relative to control
[9] = target: Tyrosine-protein kinase Lck (Homo sapiens) (UniProt P06239); assay: Effect on LCK at Y394 phosphorylation level in human NCI-H1975 incubated for 12 hrs by human phosphokinase proteome profiler array relative to control
[10] = target: Ribosomal protein S6 kinase beta-1 (Homo sapiens) (UniProt P23443); assay: Effect on p70S6 Kinase at T389 phosphorylation level in human NCI-H1975 incubated for 12 hrs by human phosphokinase proteome profiler array relative to control
[11] = target: T1, Signal transducer and activator of transcription 5B (Homo sapiens) (UniProt P51692); assay: Effect on STAT5b at Y699 phosphorylation level in human NCI-H1975 incubated for 12 hrs by human phosphokinase proteome profiler array relative to control
T1 sequence (whole entry): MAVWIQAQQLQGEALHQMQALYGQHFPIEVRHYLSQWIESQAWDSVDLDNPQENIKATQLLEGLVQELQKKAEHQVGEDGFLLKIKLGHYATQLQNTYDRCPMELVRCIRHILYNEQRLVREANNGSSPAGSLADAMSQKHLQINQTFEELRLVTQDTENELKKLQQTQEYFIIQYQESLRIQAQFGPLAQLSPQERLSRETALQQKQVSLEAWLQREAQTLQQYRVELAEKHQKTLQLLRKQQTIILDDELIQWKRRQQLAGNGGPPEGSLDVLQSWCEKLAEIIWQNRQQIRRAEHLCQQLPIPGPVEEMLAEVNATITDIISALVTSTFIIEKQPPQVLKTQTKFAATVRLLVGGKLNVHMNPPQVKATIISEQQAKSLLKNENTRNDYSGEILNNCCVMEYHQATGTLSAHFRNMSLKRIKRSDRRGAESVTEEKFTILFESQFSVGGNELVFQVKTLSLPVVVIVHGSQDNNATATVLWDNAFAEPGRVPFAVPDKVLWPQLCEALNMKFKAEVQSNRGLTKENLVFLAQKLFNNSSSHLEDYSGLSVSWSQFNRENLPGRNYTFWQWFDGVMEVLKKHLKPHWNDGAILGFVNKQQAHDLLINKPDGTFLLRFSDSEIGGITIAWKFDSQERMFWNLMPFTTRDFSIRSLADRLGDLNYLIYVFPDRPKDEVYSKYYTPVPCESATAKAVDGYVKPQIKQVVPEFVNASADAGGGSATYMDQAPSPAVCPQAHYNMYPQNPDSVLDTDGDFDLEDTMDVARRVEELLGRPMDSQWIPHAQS

Chains of the proteins cited; added tags and fusions are not shown. Lines headed by an entry give the natural chain unless they say otherwise; changes in a name come on top.
UniProt P27361, whole entry, looked up: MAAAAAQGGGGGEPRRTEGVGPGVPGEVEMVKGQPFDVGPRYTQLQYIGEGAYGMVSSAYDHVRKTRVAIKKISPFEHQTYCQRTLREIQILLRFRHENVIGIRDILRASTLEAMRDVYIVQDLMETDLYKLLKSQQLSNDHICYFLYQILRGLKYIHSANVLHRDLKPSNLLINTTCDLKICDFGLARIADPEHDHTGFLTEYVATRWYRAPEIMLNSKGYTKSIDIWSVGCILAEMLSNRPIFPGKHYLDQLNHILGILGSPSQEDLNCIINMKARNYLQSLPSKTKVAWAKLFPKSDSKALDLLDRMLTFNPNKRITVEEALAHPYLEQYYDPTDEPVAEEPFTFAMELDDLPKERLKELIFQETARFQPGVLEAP
UniProt P28482, whole entry, looked up: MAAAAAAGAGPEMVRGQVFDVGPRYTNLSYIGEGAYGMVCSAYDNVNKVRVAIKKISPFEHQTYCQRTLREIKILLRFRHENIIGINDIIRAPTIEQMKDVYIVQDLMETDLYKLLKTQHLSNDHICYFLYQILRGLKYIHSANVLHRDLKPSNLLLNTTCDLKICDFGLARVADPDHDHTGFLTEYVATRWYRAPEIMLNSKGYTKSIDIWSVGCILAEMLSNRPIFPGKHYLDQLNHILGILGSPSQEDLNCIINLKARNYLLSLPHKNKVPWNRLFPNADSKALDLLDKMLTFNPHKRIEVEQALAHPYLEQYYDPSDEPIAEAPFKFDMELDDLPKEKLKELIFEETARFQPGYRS
UniProt Q9Y243: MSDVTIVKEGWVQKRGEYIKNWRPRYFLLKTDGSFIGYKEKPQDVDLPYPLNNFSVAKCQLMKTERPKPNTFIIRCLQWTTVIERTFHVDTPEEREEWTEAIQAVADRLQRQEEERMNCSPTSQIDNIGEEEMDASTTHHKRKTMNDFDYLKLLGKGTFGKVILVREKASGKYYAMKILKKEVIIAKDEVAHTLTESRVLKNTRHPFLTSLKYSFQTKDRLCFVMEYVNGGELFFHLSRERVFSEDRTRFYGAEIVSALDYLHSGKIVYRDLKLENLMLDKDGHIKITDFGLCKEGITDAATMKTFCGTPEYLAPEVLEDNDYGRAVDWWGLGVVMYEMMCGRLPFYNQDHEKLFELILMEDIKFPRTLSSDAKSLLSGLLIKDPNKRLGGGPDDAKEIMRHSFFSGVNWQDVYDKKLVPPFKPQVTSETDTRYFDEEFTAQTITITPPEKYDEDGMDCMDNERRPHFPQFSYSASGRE
UniProt P31749: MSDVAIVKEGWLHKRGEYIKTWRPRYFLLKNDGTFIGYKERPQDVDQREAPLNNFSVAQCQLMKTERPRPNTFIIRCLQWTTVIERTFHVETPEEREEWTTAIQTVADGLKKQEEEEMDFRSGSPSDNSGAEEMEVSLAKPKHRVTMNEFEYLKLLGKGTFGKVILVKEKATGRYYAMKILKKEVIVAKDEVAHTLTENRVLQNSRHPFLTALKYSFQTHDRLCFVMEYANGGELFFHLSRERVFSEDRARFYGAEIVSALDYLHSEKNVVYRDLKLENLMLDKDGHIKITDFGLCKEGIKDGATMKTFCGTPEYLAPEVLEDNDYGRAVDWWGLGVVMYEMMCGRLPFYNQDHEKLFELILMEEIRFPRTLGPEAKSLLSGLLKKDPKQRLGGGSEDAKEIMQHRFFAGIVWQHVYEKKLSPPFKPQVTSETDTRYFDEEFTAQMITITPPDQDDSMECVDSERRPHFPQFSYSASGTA
UniProt P06241, whole entry, looked up: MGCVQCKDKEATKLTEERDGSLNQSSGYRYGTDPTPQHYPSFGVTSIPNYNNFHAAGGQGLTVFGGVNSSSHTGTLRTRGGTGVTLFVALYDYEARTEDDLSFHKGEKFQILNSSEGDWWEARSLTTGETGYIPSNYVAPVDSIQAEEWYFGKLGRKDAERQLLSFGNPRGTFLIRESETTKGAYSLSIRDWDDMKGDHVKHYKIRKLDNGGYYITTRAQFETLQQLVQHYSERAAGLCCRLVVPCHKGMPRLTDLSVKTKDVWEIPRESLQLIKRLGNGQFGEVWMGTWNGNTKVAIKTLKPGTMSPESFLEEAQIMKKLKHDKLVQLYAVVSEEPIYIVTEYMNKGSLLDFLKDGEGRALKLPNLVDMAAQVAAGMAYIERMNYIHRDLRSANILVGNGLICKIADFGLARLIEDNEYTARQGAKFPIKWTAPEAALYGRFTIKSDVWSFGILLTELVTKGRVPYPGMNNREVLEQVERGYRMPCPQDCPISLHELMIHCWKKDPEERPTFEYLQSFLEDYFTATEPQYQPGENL
UniProt P05412, whole entry: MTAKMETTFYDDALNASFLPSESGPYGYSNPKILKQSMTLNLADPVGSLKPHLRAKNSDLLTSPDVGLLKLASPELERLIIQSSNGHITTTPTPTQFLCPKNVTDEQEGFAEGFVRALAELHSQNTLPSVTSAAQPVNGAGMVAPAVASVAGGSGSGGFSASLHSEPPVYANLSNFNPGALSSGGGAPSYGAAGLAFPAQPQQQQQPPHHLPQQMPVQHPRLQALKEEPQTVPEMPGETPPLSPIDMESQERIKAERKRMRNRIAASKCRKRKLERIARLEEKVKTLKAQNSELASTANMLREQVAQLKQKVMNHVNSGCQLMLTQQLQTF
UniProt P23443: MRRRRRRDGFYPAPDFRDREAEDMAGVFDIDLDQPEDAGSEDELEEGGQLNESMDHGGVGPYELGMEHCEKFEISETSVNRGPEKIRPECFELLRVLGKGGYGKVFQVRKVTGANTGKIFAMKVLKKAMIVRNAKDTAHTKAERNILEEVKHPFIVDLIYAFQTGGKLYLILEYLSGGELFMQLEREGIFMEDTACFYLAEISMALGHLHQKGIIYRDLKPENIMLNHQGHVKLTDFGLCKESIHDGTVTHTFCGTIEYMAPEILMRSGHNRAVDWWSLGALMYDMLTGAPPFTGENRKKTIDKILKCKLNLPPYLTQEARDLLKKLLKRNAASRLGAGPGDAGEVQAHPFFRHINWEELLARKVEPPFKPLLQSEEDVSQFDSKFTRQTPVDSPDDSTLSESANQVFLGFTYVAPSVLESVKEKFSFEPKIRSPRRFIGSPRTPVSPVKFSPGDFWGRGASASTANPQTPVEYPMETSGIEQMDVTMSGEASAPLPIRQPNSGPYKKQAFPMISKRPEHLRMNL
UniProt P04637, whole entry, looked up: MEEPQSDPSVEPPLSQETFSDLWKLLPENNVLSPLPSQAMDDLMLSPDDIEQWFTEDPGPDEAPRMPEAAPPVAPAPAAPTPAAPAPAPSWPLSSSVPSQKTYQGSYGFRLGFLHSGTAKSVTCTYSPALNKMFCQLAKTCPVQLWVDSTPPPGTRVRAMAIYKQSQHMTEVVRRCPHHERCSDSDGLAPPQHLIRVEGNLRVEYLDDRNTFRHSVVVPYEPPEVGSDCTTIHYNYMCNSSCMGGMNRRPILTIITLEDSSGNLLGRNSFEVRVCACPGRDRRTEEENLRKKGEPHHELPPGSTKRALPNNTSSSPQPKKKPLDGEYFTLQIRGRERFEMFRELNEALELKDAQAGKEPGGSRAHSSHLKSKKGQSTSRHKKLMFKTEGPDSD
UniProt O96017, whole entry: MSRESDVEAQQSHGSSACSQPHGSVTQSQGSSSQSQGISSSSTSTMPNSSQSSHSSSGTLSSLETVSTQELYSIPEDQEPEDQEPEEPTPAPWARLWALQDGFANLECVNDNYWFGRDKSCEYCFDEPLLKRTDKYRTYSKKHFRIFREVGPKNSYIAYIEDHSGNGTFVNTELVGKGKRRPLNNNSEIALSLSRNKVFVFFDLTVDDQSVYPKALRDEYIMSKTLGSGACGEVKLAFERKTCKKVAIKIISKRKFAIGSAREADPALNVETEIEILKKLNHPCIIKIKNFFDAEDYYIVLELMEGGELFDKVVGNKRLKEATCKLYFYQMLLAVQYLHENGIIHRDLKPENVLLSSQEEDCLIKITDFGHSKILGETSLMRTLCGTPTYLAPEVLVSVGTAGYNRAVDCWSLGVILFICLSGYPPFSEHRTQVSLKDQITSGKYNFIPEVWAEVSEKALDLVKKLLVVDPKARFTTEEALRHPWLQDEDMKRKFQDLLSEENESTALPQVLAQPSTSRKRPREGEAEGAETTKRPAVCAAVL
UniProt P45983: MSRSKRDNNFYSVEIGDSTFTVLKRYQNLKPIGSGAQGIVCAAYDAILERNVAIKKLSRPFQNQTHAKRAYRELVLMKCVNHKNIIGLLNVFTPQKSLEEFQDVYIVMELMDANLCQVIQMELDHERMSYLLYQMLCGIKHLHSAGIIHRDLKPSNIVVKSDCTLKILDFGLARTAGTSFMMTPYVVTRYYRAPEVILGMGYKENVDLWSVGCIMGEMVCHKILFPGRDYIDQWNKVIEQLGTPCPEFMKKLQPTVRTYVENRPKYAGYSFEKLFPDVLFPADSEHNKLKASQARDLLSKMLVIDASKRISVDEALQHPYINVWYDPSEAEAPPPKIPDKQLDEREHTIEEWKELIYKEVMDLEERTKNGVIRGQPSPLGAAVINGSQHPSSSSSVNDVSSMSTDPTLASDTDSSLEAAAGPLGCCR
UniProt P53779: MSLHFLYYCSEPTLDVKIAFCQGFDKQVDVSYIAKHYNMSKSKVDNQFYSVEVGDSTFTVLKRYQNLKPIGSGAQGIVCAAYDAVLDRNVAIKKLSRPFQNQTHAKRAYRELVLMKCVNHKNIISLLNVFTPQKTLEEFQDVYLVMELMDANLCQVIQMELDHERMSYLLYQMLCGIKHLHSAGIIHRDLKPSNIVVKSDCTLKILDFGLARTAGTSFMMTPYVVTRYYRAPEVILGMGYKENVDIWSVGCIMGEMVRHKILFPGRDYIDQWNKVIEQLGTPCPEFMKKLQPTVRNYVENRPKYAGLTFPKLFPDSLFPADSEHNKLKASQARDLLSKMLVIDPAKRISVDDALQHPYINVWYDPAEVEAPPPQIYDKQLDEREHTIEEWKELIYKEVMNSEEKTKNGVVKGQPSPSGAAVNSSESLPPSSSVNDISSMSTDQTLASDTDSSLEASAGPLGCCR
UniProt P51812, whole entry, looked up: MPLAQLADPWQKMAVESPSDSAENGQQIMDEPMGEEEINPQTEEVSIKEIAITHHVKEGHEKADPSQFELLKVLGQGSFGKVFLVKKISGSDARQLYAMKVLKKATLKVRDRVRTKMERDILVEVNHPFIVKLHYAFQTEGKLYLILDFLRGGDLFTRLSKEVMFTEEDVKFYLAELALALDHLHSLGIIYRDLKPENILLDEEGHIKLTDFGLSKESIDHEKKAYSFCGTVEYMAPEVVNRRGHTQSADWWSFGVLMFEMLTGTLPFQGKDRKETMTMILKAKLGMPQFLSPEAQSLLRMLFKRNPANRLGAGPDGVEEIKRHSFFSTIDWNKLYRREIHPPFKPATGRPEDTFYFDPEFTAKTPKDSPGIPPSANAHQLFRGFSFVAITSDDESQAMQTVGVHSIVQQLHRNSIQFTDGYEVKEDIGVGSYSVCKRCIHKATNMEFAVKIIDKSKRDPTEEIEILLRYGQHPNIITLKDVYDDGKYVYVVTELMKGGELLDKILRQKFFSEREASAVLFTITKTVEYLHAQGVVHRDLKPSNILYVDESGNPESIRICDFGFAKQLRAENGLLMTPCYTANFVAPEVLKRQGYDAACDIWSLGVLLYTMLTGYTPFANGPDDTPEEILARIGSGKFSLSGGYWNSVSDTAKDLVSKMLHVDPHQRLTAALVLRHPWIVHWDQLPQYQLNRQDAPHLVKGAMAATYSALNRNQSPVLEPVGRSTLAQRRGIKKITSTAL
UniProt Q15418, whole entry, looked up: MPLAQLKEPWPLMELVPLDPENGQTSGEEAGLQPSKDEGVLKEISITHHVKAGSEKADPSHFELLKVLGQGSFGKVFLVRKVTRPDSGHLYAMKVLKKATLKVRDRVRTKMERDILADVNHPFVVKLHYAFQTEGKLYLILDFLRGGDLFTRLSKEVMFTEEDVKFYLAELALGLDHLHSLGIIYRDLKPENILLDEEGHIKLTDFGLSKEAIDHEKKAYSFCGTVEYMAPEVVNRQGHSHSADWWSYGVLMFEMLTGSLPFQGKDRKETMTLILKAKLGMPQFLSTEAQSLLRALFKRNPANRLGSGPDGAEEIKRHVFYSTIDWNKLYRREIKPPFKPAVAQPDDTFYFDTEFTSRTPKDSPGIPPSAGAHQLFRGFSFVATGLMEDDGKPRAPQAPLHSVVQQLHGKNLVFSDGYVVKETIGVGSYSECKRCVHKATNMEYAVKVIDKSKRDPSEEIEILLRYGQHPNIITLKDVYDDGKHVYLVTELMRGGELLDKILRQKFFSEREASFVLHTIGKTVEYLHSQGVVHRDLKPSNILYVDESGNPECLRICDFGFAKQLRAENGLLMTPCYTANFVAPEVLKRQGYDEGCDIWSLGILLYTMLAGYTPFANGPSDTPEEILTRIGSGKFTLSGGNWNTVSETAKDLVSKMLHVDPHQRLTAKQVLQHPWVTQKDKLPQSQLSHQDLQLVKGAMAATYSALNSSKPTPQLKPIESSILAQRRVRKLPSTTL

[12] = target: Serine/threonine-protein kinase Chk2 (Homo sapiens) (UniProt O96017); assay: Effect on CHK2 at T68 phosphorylation level in human NCI-H1975 incubated for 12 hrs by human phosphokinase proteome profiler array relative to beta-catenin
[13] = target: c-Jun N-terminal kinase, JNK (Homo sapiens) (UniProt P45983+P53779+P45984); assay: Effect on JNK1/2/3 phosphorylation at T183/Y185,T221/Y223 residue in human NCI-H1975 incubated for 12 hrs by human phosphokinase proteome profiler array relative to control
[14] = target: Cellular tumor antigen p53 (Homo sapiens) (UniProt P04637); assay: Effect on p53 at S392 phosphorylation level in human NCI-H1975 incubated for 12 hrs by human phosphokinase proteome profiler array relative to beta-catenin
[15] = target: Protein-tyrosine kinase 2-beta (Homo sapiens) (UniProt Q14289); assay: Effect on PYK2 at Y402 phosphorylation level in human NCI-H1975 incubated for 12 hrs by human phosphokinase proteome profiler array relative to beta-catenin
[16] = target: RPS6KA1/RPS6KA2/RPS6KA3 (Homo sapiens) (UniProt P51812+Q15349+Q15418); assay: Effect on RSK1/2/3 at S380/S386/S377 phosphorylation level in human NCI-H1975 incubated for 12 hrs by human phosphokinase proteome profiler array relative to beta-catenin

Row | SMILES | fold change (FC) [1] | fold change (FC) [2] | fold change (FC) [3] | fold change (FC) [4] | fold change (FC) [5] | fold change (FC) [6] | fold change (FC) [7] | fold change (FC) [8] | fold change (FC) [9] | fold change (FC) [10] | fold change (FC) [11] | fold change (FC) [12] | fold change (FC) [13] | fold change (FC) [14] | fold change (FC) [15] | fold change (FC) [16]
1 | CCOc1ccc(-c2nc(/C(N)=N/O)c3[nH]c(=O)n(-c4ccccc4OC)c3n2)cc1 | 1.65 | 0.79 | 0.88 | 1.75 | 1.45 | 1.3 | 0.64 | 1.16 | 0.66 | 1.34 | 0.87 | 0.86 | 0.74 | 1.36 | 1.67 | 1.81
2 | CCOc1ccc(-c2nc(C(=O)NO)c3[nH]c(=O)n(-c4ccccc4OC)c3n2)cc1 | 1.48 | 0.61 | 0.9 | 1.32 | 0.92 | 0.98 | 0.61 | 1.03 | 0.65 | 0.89 | 0.78 | 0.97 | 0.82 | 1.16 | 1.27 | 1.17
